From patent US20220280427A1, “LIPID NANOPARTICLE COMPOSITIONS COMPRISING CLOSED-ENDED DNA AND CLEAVABLE LIPIDS AND METHODS OF USE THEREOF” (Generation Bio Co., priority 2019, published 2022)

What was measured:
[1] = system: IFNα, IFNγ, IL-18, IL-6, TNFα, IP-10, MCP-1, MIP1α, MIP1β, RANTES; experiment: Serum cytokine and chemokine levels in CD-1 mice (Example 7); format: in vivo; details: co-formulated with ceDNA-luc in ss-Paz3 LNPs, serum 6 hours after dosing, 0.5 mg/kg IV
Procedure: Briefly, ceDNA-luc was formulated in LNPs containing SS-cleavable lipids and MC3 as described above and dosed at 0.5 mg/kg IV into male CD-1 mice. In one LNP, dexamethasone palmitate was included and co-formulated with ceDNA-luc in the ss-Paz3 (ssPalmE-Paz4-C2; also known as SS-33/1PZ-21) LNPs. As mentioned above, the numbers 3 and 4, as in ss-OP3 and ss-OP4; or in ss-Paz3 and ss-Paz4, represent total lipid components in LNP formulation. For example, ss-OP3 LNP contains three different lipid components: ss-OP, cholesterol and PEG-DMG. Similarly, ss-OP4 LNP has four different lipid components: ss-OP, DOPC, cholesterol and PEG-DMG. Dexamethasone palmitate (DexPalm) is an anti-inflammatory agent that inhibits leukocytes and tissue macrophages, and reduces inflammatory response. […]
The study details are set forth below. […] Body weights for all animals were be recorded on Days 0, 1, 2, 3, 7, 14, 21 and 28 (prior to euthanasia). Additional body weights were recorded as needed. ceDNA were supplied in a concentration stock (0.5 mg/mL). […] On Days 3, 7, 14 (optional Days 21 and 28), remaining animals in Groups 1-11 were dosed with luciferin at 150 mg/kg (60 mg/mL) via intraperitoneal (IP) injection at 2.5 mL/kg. ≤15 minutes post each luciferin administration Luminescence was obtained by using in vivo imaging system (IVIS) imaging as described below. […]

cytokines = experiment: Serum cytokine release in CD-1 mice (Example 9); format: in vivo; details: ss-OP4:ceDNA-luc + DexP groups, all groups tested with DexPalm
Procedure: Dose Administration: Test articles for Groups 1-7 were dosed at 5 mL/kg on Day 0 by IV administration via lateral tail vein. Test articles for Group 8 were dosed at 5 mL/kg on Day 1 by IV administration via lateral tail vein. The dose level of 2.0 mg/kg or 0.75 mg/kg was determined after the 6 and 24 hour clinical observations of Group 7. If any adverse effects are seen the lower dose was administered.
Blood Collection: All animals had blood collected on Day 0 & 1 and Day 1 & 2 per table Sample Collection table above. After each collection animals received 0.5-1.0 mL lactated Ringer's, subcutaneously.
Whole blood for serum was collected by tail-vein nick, saphenous vein or orbital sinus puncture (under inhalant isoflurane per facility SOPs). Whole blood was collected into a serum separator with clot activator tube and processed into one (1) aliquot of serum per facility SOPs. All samples were stored at nominally −70° C.

Dexamethasone palmitate
effect of dexamethasone palmitate in the LNP formulation on cytokines [1]: further reductions in some cytokines
effect of dexamethasone palmitate in the LNP formulation on cytokines ([1]; listed as dexamethasone palmitate): beneficial effects
effect of dexamethasone palmitate on cytokines (cytokines): further reductions in some cytokines
